Reference: patent US10100282B2, “Differentiation of pluripotent cells” (FUJIFILM Cellular Dynamics, Inc., priority 2009, dated 2018)

System: hESCs
Experiment: Cytokine matrix: serum-free EB hematopoietic differentiation, surface markers by flow cytometry
Format: cell-based, human
Protocol: Cells were collected from each well/condition and washed once with media. The cell pellet was digested using TrypLE™ or 0.5% trypsin for 5-10 minutes in a 37° C. incubator followed by washes with media and passage through a 70-μm cell strainer. […] Non-viable cells were excluded with 7-aminoactinomycin D (7-AAD, BD Biosciences). Live cell analysis was performed on a FACSCalibur™ or Accuri flow cytometer and Cell Quest software. hESCs adapted to feeder free growth on matrigel maintained using mTESR were preconditioned for three days in the presence of X-vivo-15 containing 0.1 ng/ml TGF-β and 20 ng/ml FGF-2. Cells were harvested using TrypLE for 6 minutes at 37 C. TrypLE™ was neutralized using EB basal media containing 1 μM ROCK inhibitor (H-1152), Soybean trypsin inhibitor (0.25 mg/ml). The cells were washed once in EB basal media containing 1 μM ROCK inhibitor and soybean trypsin inhibitor (0.25 mg/ml). The cells were plated in low attachment plates in EB basal media containing 1 μM ROCK inhibitor and soybean trypsin inhibitor (0.25 mg/ml). The media was changed the next day to EB basal media containing different cytokine formulations. The concentration of cytokines used is as follows: 25 ng/ml BMP-4, 25 ng/ml VEGF, 25 ng/ml SCF, 25 ng/ml Flt-3L, 10 ng/ml IL-3, 10 ng/ml IL-6, 20 ng/ml G-CSF; 20 ng/ml GM-CSF, 0.2 U/ml EPO, 10 ng/ml TPO and 10 ng/ml zebrafish FGF-2. The cytokine combinations used are listed below in Table 3. The EB cultures were half fed with fresh differentiation media every two days. The EB cultures were harvested on day 8, 12 and 17 of differentiation. The EB cultures were harvested by spinning down all the cells and digesting the EBs with TrypLE™ or 0.5% trypsin. The phenotype of the progenitor cell types was analyzed by flow cytometry and the cells were plated in methylcellulose media for CFU assays. “FLT3” refers to the Flt3 ligand below.

B1: IL3: Interleukin-3, a hematopoietic growth factor (protein, UniProt P08700 20-152, looked up)
Interleukin-3: APMTQTTPLKTSWVNCSNMIDEIITHLKQPPLPLLDFNNLNGEDQDILMENNLRRPNLEAFNRAVKSLQNASAIESILKNLLPCLPLATAAPTRHPIHIKDGDWNEFRRKLTFYLKTLENAQAQQTTLSLAIF
B1 was tested, and the CD31 expressing cells (DAY 8, factor ABSENT) was 0.5%, the CD34 expressing cells (DAY 8, factor ABSENT) was 1.0% and the CD43 expressing cells (DAY 8, factor ABSENT) was 0.3%. The CD45 expressing cells (DAY 8, factor ABSENT) was 0.2%, the FLK-1 expressing cells (DAY 8, factor ABSENT) was 1.5% and the CD31 expressing cells (DAY 8, factor PRESENT) was 1.0%. For the same molecule, the CD34 expressing cells (DAY 8, factor PRESENT) was 1.3%, the CD43 expressing cells (DAY 8, factor PRESENT) was 1.4% and the CD45 expressing cells (DAY 8, factor PRESENT) was 0.2%. For the same molecule, the FLK-1 expressing cells (DAY 8, factor PRESENT) was 2.3%, the CD31 expressing cells (DAY 12, factor ABSENT) was 1.6% and the CD34 expressing cells (DAY 12, factor ABSENT) was 2.0%. The CD43 expressing cells (DAY 12, factor ABSENT) was 1.4%, the CD45 expressing cells (DAY 12, factor ABSENT) was 1.3% and the FLK-1 expressing cells (DAY 12, factor ABSENT) was 0.6%. The CD31 expressing cells (DAY 12, factor PRESENT) was 2.4%, the CD34 expressing cells (DAY 12, factor PRESENT) was 2.3% and the CD43 expressing cells (DAY 12, factor PRESENT) was 3.0%. For the same molecule, the CD45 expressing cells (DAY 12, factor PRESENT) was 2.7%, the FLK-1 expressing cells (DAY 12, factor PRESENT) was 0.4% and the CD31 expressing cells (DAY 17, factor ABSENT) was 1.8%. For the same molecule, the CD34 expressing cells (DAY 17, factor ABSENT) was 2.5%, the CD43 expressing cells (DAY 17, factor ABSENT) was 1.4% and the CD45 expressing cells (DAY 17, factor ABSENT) was 1.0%. For the same molecule, the FLK-1 expressing cells (DAY 17, factor ABSENT) was 1.2%, the CD31 expressing cells (DAY 17, factor PRESENT) was 11.2% and the CD34 expressing cells (DAY 17, factor PRESENT) was 2.4%. For the same molecule, the CD43 expressing cells (DAY 17, factor PRESENT) was 12.1%, the CD45 expressing cells (DAY 17, factor PRESENT) was 12.2% and the FLK-1 expressing cells (DAY 17, factor PRESENT) was 2.4%. The “role during EB differentiation” value (serum free hematopoietic differentiation, days 8, 12, 17) was “play a role during later stages of EB differentiation”.
